Assay: Phase solubility analysis of RIF with cyclodextrins (binding constant, complexation efficiency)
Format: physicochemical
Procedure: Phase solubility analysis was carried out similarly to the saturation solubility studies by using a range of concentrations of CDs in buffered solutions at different pH vales. […] Solubility of each drug was determined and plotted in a graph with the nominal concentration of cyclodextrin on the x-axis and the nominal concentration of RIF on the y-axis.
In order to determine the binding strength of CD and RIF, the binding constant (Ks) was calculated based on the phase diagram of solubility studies. […] (1) Ks=[RIF−CD]/[RIF]free·[CD]free CD+RIF↔KsCD−RIF where [RIF − CD], [RIF]free, and [CD]free are concentration of the RIF-CD complexes, free RIF, and free CD, respectively.
[RIF]free can be considered as RIF initial solubility (S0), therefore Equation (2) becomes:(2) Ks=[RIF−CD]/S0·[CD]free
The phase solubility diagram was constructed by plotting the RIF molar concentration on the y-axis and the CD molar concentration on the x-axis. […] (3) Ks=slope/S0·(1−slope)
The complexation efficiency (CE) was determined by using the slope of the phase solubility diagram according to Equation (4). (4) CE=[CD−RIF]/[CD]free=S0·Ks=slope/1−slope
Based on CE determination, the CD molar ratio was calculated using Equation (5). (5) Drug :CD molar ratio=1 : (CE+1)/CE

## hydroxypropyl-γCD [HP-γCD]
pH 4.0
  CE (complexation efficiency): 0.32
pH 4.0, RIF-CD 1:1 complex
  Ks (binding constant): 738 M⁻¹
pH 7.0
  CE (complexation efficiency): 0.77
pH 7.0, RIF-CD 1:1 complex
  Ks (binding constant): 674 M⁻¹
pH 9.0
  CE (complexation efficiency): 0.99
pH 9.0, RIF-CD 1:1 complex
  Ks (binding constant): 722 M⁻¹
